This is a selection; strong and weak results do not stand in their true shares. Active and inactive are the calls of the source.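 Rule for the calls: active = percent inhibition above a cutoff equal to the mean of all tested compounds plus 3 SD (cut at about 15% in these data); inactive = the rest.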
target: Protein-arginine deiminase type-4 (Homo sapiens) (UniProt Q9UM07); assay: human PAD4 inhibitors, primary screen, biochemical, fluorescence polarization, 1536-well format (AID 485272); conditions: recombinant PAD4, RCA probe fluorescence polarization; at 6.36 µM; stronger effect = higher value;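 note: 0% = PAD4 with RCA probe and DMSO and 100% = probe without PAD4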

The chains behind the UniProt entries cited, without tags or fusion partners.
UniProt Q9UM07, whole entry, looked up: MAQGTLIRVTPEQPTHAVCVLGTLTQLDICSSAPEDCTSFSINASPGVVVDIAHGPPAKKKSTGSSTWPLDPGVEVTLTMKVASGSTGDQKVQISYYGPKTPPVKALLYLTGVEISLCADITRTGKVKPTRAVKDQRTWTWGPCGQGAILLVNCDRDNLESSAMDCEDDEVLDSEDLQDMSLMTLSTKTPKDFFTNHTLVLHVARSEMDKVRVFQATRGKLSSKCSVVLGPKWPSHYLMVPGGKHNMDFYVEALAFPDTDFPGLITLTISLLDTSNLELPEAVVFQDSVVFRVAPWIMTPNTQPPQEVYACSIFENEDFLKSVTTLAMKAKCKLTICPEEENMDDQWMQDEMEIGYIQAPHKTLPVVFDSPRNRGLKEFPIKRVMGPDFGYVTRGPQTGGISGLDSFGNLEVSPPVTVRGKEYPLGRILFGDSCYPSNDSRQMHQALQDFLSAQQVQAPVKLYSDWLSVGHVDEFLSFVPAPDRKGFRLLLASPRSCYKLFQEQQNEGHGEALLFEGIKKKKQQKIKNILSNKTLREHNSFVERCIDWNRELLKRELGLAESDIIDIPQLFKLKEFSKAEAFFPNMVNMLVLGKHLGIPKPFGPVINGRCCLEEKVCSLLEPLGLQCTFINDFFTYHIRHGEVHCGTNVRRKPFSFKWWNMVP

Compound	inhibition
Cc1nn(-c2ccccc2)c2c1P(=O)(N1CCOCC1)N(C)C(c1ccccc1)=N2 (stereo not given)	inactive: -2.56%
Cc1ccc(C(=O)OC2CN3CCC2CC3)cc1 (stereo not given)	inactive: -3.54%
CC1CCC(C(C)C)C(OP(=O)(Nc2ccccn2)c2ccccc2)C1 (stereo not given)	inactive: 1.76%
CN(C)C1(CNC(=O)c2ccc(S(C)(=O)=O)cc2)CCCCC1	inactive: -1.58%
O=C(/C=C/c1ccccc1)OC1CN2CCC1CC2 (stereo not given)	inactive: 5.63%
O=P1(Nc2ncccn2)COc2ccccc2OC1	inactive: 0.62%
Nc1cccc([As](=O)(O)c2ccccc2)c1	inactive: 3.34%
O=[As](O)(c1cccs1)c1cccs1	inactive: -7.06%
Cc1ccc(OCC(=O)OC2CN3CCC2CC3)cc1 (stereo not given)	inactive: 4%
NS(=O)(=O)c1cccc(NC(=O)COC(=O)C(O)(c2ccccc2)c2ccccc2)c1	inactive: 0.49%
O=P1(Nc2ccc(Br)cn2)COc2ccccc2OC1	inactive: -3.33%
CCC1=CC2Cc3nc4ccc(Cl)cc4c(N)c3C(C1)C2 (stereo not given)	inactive: 0.33%
O=P1(Nc2ccccn2)COc2ccccc2OC1	inactive: -2.14%
CCOP(=O)(NC(=NC(C)c1ccccc1)NC(C)c1ccccc1)OCC (stereo not given)	inactive: 5.17%
CCOP(=O)(Nc1ccc(C)cn1)OCC	inactive: 4.49%
CN(CCCl)Cc1cc(Cl)c(NC2=NCCN2)c(Cl)c1	inactive: 0.11%
Clc1n[nH]nc1-c1nn[nH][15n]1	inactive: -3.51%
CC(C)(C)C(=O)NC(Sc1ncccn1)C(Cl)(Cl)Cl (stereo not given)	inactive: 4.36%
COc1ccccc1CNC(=O)COC(=O)C(O)(c1ccccc1)c1ccccc1	inactive: 2.04%
CN(C(=O)Cc1ccc(Cl)c(Cl)c1)[C@@H]1CCCC[C@H]1N1CCCC1	inactive: 2.1%
CC(C)/C=N\N=C(\N)N[N+](=O)[O-]	inactive: 2.39%
O=[As](O)(c1ccccc1Br)c1ccccc1Br	inactive: -1.55%

Compound	inhibition
CC1(CBr)Cn2c(nc3ccccc3c2=O)S1 (stereo not given)	inactive: 1.39%
O=C(OC1CN2CCC1CC2)c1ccc(Cl)cc1 (stereo not given)	inactive: -0.6%
O=[As](O)(O)c1cccnc1	inactive: -3.43%
COc1cc(C(=O)NCC2(N3CCOCC3)CCCCC2)cc(Cl)c1OC(C)C	inactive: -1.9%
CS(=O)(=O)c1ccc(Cl)c(NC(=O)COC(=O)C(O)(c2ccccc2)c2ccccc2)c1	inactive: 0.1%
Cc1cccc(OCC(=O)OC2CN3CCC2CC3)c1 (stereo not given)	inactive: -1.39%
O=[As](O)(c1cccc(O)c1)c1cccc(O)c1	inactive: 1.81%
Nc1cccc2c([As](=O)(O)O)cccc12	active: 92%
Cc1ccc(NCCc2c([N+](=O)[O-])cc([N+](=O)[O-])cc2[N+](=O)[O-])cc1	inactive: -11.9%
CCCOP(=S)(Nc1nc(N)cc(=O)[nH]1)OCCC	inactive: -1.91%
COc1cc(C2NCCC3(OCCO3)C2(C)C)cc(OC)c1OC (stereo not given)	inactive: 0.93%
CCOP(=O)(Nc1cccc2ccccc12)OCC	inactive: 1.82%
CCOP1(=S)c2c(C)nn(CCC#N)c2N=C(c2ccccc2F)N1C (stereo not given)	inactive: 2.73%
O=P(Nc1nccs1)(Oc1ccccc1)Oc1ccccc1	inactive: -2.58%
O=P(Nc1nccs1)(c1ccccc1)c1nc2ccccc2s1 (stereo not given)	inactive: 0.52%
CS(=O)(=O)c1cc([N+](=O)[O-])c2no[n+]([O-])c2c1	inactive: -9.46%
O=C(O)COc1ccc([As](=O)(O)O)cc1[N+](=O)[O-]	inactive: 1.71%
Nc1ccccc1[As](=O)(O)c1ccccc1	inactive: -0.75%
NC(=O)Nc1ccc([As](=O)(O)O)cc1	inactive: 0.01%
N#CCCN(C(=O)COC(=O)C(O)(c1ccccc1)c1ccccc1)c1ccc(F)cc1	inactive: -2.94%
CN(C(=O)Cc1ccccc1)[C@@H]1CC[C@]2(CCCO2)C[C@H]1N1CCCC1	inactive: -4.17%
CCOP1(=S)c2c(C)nn(CCC#N)c2N=C(c2ccc(F)cc2)N1C (stereo not given)	inactive: -0.91%

Compound	inhibition
O=[N+]([O-])c1ccc2c(c1)nnn2O	inactive: 3.7%
CN(C)C(=O)c1cc([N+](=O)[O-])cc2c1-c1c(cc([N+](=O)[O-])cc1[N+](=O)[O-])C2=O	inactive: 0.04%
CN(C(=O)Cc1ccc(Cl)c(Cl)c1)[C@H]1CC[C@@]2(CCCO2)C[C@@H]1N1CCCC1	inactive: -1.29%
C[As](=O)(O)c1cccc(C(=O)O)c1	inactive: -0.78%
O=[As](O)(c1ccc(O)cc1)c1ccccc1O	inactive: 12.6%
COc1cc(C(=O)NCC2(N3CCOCC3)CCCCC2)ccc1OCC(C)C	inactive: -2.67%
Cc1ccc(OP(=O)(Nc2ccc([N+](=O)[O-])cn2)Oc2ccc(C)cc2)cc1	inactive: 0.15%
Cc1ccc2nc3c(c(C)c2c1)CC(C(Cl)Cl)S3 (stereo not given)	inactive: -3.83%
ClCCSc1nnc(-c2cccnc2)o1	inactive: -1.81%
CC(C)c1ccc(OP(=O)(Nc2ccccn2)Oc2ccccc2F)cc1 (stereo not given)	inactive: 0.29%
CC(C)NC(=O)NP(=O)(Oc1ccccc1)Oc1ccccc1	inactive: 1.09%
CCN(CC)C(=S)SC(NC=O)C(Cl)(Cl)Cl (stereo not given)	inactive: 0.81%
O=[N+]([O-])c1cc([N+](=O)[O-])c(-c2ccn[nH]2)s1	inactive: -11.4%
Cc1c2c(nc3ccccc13)SC(C(Cl)Cl)C2 (stereo not given)	inactive: 3.78%
O=C(OC1CN2CCC1CC2)C12CC3CC(CC(C3)C1)C2 (stereo not given)	inactive: -1.78%
Cc1cc(=O)[nH]c(N[N+](=O)[O-])n1	inactive: -3.19%
COc1ccc2nc(NP(=O)(c3ccccc3)c3ccccc3)sc2c1	inactive: -4.41%
COc1cc(I)ccc1[As](=O)(O)O	inactive: 2.44%
COc1ccc(N/C(=N/P(=O)(N2CCOCC2)N2CCOCC2)N2CCOCC2)cc1	inactive: 1.56%
COP1(=S)c2c(C)nn(CCC#N)c2N=C(c2ccc(F)cc2)N1C (stereo not given)	inactive: -3.11%
O=C(COc1ccccc1)OC1CN2CCC1CC2 (stereo not given)	inactive: 3.14%

From PubChem BioAssay AID485272 (The Scripps Research Institute Molecular Screening Center, 2010)
